scFv variants of Ab-14 (light chain) against a SARS-CoV-2 spike peptide

Source: Engelhart et al. 2022 (doi:10.1038/s41597-022-01779-4), MIT Lincoln Laboratory and A-Alpha Bio; data file from the FLAb repository.

Antigen: PDVDLGDISGINAS, a 14-residue peptide of the SARS-CoV-2 spike HR2 region.

Parent: Ab-14, a human scFv built as VH, a 15-residue (Gly4Ser)3 linker, VL. Only the CDRs of the light chain vary.
VH: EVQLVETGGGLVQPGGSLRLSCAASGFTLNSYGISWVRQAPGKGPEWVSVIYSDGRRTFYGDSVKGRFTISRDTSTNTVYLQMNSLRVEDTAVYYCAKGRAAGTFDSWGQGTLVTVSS
VL: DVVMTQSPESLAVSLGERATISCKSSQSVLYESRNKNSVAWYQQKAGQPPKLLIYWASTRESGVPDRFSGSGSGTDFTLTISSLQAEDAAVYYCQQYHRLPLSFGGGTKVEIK

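The starting antibody came from a phage panning campaign against this peptide. Library AAYL50 holds single substitutions and randomly drawn double and triple substitutions in the CDRs. Affinity was read by AlphaSeq, a pooled yeast mating assay with surface-displayed partners. The frequency of each diploid, read from paired DNA barcodes, reflects how well the two displayed proteins bind. A regression on co-assayed BCL2-family reference pairs converts the normalised counts of each replicate to an apparent Kd. There are three technical replicates.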

The parent's light chain CDRs are KSSQSVLYESRNKNSVA, WASTRES, QQYHRLPLS; each variant's own CDRs replace them letter for letter.
Numbers give log10(Kd / nM), so 0 is 1 nM and 3 is 1 µM. Smaller is tighter.
An entry "nd" has no value in the source: the pair was not observed among the diploids in that replicate. This suggests poor binding but is not conclusive.
In this assay the parent's reference entry averaged 0.65; its copy inside this library read 1.68.
Nonspecific signal, from three strains lacking the peptide, appeared in 18% of pairings of library AAYL50, centred on 4.19 (5% of these signals below 2.99); values are not corrected for it. The control count says in how many pairings with the empty strains this scFv gave a signal, with their mean in brackets.

CDR-L1 | CDR-L2 | CDR-L3 | log10 Kd, replicates | signal with controls
WSSQSVLYESWNKNSVA | WASTRWS | QQYHRLPLS | nd nd nd | 1/9 (2.62)
KSSQSVLYESYNKNSVD | WASTRES | WQYHRLPLS | nd nd nd | 0/9
KSQQSVLYESRNKNSVA | SASTRES | QPYHRLPLS | -0.30 0.03 -0.28 | 1/9 (3.77)
RSSQSVLYESRNKNSVA | WAVTRES | QQYHRLPLS | 1.86 1.60 1.69 | 1/9 (4.35)
KVSQSVLYESRNKNSVA | WNPTRES | QQYHRLPLS | nd nd nd | 0/9
KSSQSVLYESRNKNSVF | WASTRES | LQYHRLPLW | nd nd nd | 3/9 (4.26)
KSSQSVLYESHEKNSVA | WASTPES | QQYHRLPLS | nd nd nd | 0/9
KSSQSVLYESRNKNSVA | WAYTRES | QQYHTLPLQ | 2.96 2.86 3.41 | 2/9 (4.23)
KSSQSVLYEDHNKNSVA | WASTRES | QQYHRLPLE | nd nd nd | 0/9
KSSQSVLYESRNKNSVA | WASTRES | QKYHRLHLD | nd nd 3.39 | 1/9 (4.13)
CSSQSVLYESFNKNYVA | WASTRES | QQYHRLPLS | 4.35 5.17 nd | 3/9 (4.00)
KSSRSVLYESRNKNSCA | WACTRES | QQYHRLPLS | nd nd nd | 0/9
KSCQSVLYESRNKNSVA | WASTRSS | QQYHRLPLS | 1.91 2.07 2.48 | 0/9
KSSQSVLYESRNKNSVA | WASTRES | QQYHRLELS | 0.55 0.82 0.68 | 5/9 (3.89)
KSSFSVLYESRNKNSVA | WASFRES | QQYHRHPLS | nd nd nd | 0/9
KSSQAVLYESRNKNAVA | WASNRES | QQYHRLPLS | 1.59 1.39 1.80 | 0/9
KSSQSVLYGSRNKNSVA | WASTRES | QQFHWLPLS | nd 4.15 nd | 0/9
KSSQSVLPLSRNKASVA | WASTRES | QQYHRLPLS | 2.63 3.02 2.47 | 1/9 (2.87)
KSSQSVLYESRNKNLVL | WASTRES | QQYHGLPLS | nd 4.89 nd | 1/9 (3.80)
KSSQSVLYESRNKNWVM | WASTREG | QQYHRLPLS | nd nd nd | 2/9 (4.65)
KSSQSVLYESRNKCSNA | WASTRES | QHYHRLPLS | nd 2.48 nd | 1/9 (2.21)
KSSQSVLYESRNKNIVA | WASTTES | QQYHRLPLS | nd 4.18 nd | 2/9 (3.79)
KKSQSVQYESRNKNSVA | WASTRES | QQYHRLPLS | nd nd 2.80 | 1/9 (4.16)
KSSQMVLYESRNKNSVA | WASTRES | AQYHFLPLS | nd nd nd | 0/9
KSSQSVLYEVRNKNSVA | WRSTRES | QWYHRLPLS | nd 3.44 nd | 1/9 (4.77)
KSSQSDLYESRNKNSVA | WARTRES | QQYHRLPLS | nd nd nd | 1/9 (4.17)
KSSQSVLYESRNKKSVA | WASTREH | QQYHYLPLS | 2.69 2.67 2.49 | 1/9 (3.29)
KSSQSVLYESRNKNSVA | WCSTREG | QQYSRLPLS | 3.27 4.12 5.81 | 1/9 (5.18)
KSSQSVLYESRNKNSKA | WASTRES | QQYHRLYLS | nd 4.70 5.03 | 6/9 (4.39)
KSSQSVLYESRNKNSVA | WASWRES | QQYHRLPLG | nd nd nd | 0/9
KSSQSVLYESRNKNSVA | WPYTRES | QQYHRLHLS | nd nd nd | 2/9 (4.76)
KSSQSVLYESSYKNSVA | WASTVES | QQYHRLPLS | 3.35 2.86 2.77 | 0/9
KSQQSVLYESRNKNSVA | WWSTRES | QQYHRLPLS | nd nd nd | 0/9
KSSQSVLYESRDKNSVA | KATTRES | QQYHRLPLS | 0.37 0.48 0.38 | 0/9
KSSQSVTYESRNKNSVA | WASWRES | QQYHRLPLK | 3.64 nd nd | 2/9 (3.79)

The opening 3 entries, copied out:

CDR-L1,CDR-L2,CDR-L3,"log10 Kd, replicates",signal with controls
WSSQSVLYESWNKNSVA,WASTRWS,QQYHRLPLS,nd nd nd,1/9 (2.62)
KSSQSVLYESYNKNSVD,WASTRES,WQYHRLPLS,nd nd nd,0/9
KSQQSVLYESRNKNSVA,SASTRES,QPYHRLPLS,-0.30 0.03 -0.28,1/9 (3.77)